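Exposure lasted 48 hours, with cells grown in 96-well plates and compounds tested at five concentrations. Here, GI50 denotes the concentration required for 50% inhibition of growth. Definition used: TGI = concentration required for complete inhibition of growth.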
Columns and labels:
Assay in all cases: NCI-60 cell line screen, 48 h
NCI-H226 lung = system: NCI-H226 lung
SK-MEL-28 melanoma = system: SK-MEL-28 melanoma
KM12 colon = system: KM12 colon
HT29 colon = system: HT29 colon
A498 renal = system: A498 renal
OVCAR-3 ovarian = system: OVCAR-3 ovarian
CCRF-CEM leukemia = system: CCRF-CEM leukemia
OVCAR-4 ovarian = system: OVCAR-4 ovarian
MOLT-4 leukemia = system: MOLT-4 leukemia
MDA-MB-231 breast = system: MDA-MB-231 breast
MALME-3M melanoma = system: MALME-3M melanoma
CAKI-1 renal = system: CAKI-1 renal
SNB-75 CNS = system: SNB-75 CNS
HS 578T breast = system: HS 578T breast
SK-MEL-2 melanoma = system: SK-MEL-2 melanoma
SK-MEL-5 melanoma = system: SK-MEL-5 melanoma
UO-31 renal = system: UO-31 renal
SN12C renal = system: SN12C renal
COLO 205 colon = system: COLO 205 colon
M14 melanoma = system: M14 melanoma
HOP-92 NSCLC = system: HOP-92 NSCLC
RPMI-8226 leukemia = system: RPMI-8226 leukemia
NCI-H460 lung = system: NCI-H460 lung
SNB-19 CNS = system: SNB-19 CNS
EKVX NSCLC = system: EKVX NSCLC
OVCAR-5 ovarian = system: OVCAR-5 ovarian
T-47D breast = system: T-47D breast
TK-10 renal = system: TK-10 renal
HCT-116 colon = system: HCT-116 colon
UACC-62 melanoma = system: UACC-62 melanoma
IGROV1 ovarian = system: IGROV1 ovarian
NCI-H522 lung = system: NCI-H522 lung
DU-145 prostate = system: DU-145 prostate
RXF 393 renal = system: RXF 393 renal
U251 CNS = system: U251 CNS
SW-620 colon = system: SW-620 colon
BT-549 breast = system: BT-549 breast
SR leukemia = system: SR leukemia
K-562 leukemia = system: K-562 leukemia
SK-OV-3 ovarian = system: SK-OV-3 ovarian
NCI-H23 lung = system: NCI-H23 lung
LOX IMVI melanoma = system: LOX IMVI melanoma
SF-268 CNS = system: SF-268 CNS
ACHN renal = system: ACHN renal
HOP-62 NSCLC = system: HOP-62 NSCLC
MDA-MB-435 = system: MDA-MB-435
PC-3 prostate = system: PC-3 prostate
A549 NSCLC = system: A549 NSCLC
OVCAR-8 ovarian = system: OVCAR-8 ovarian
786-0 renal = system: 786-0 renal
UACC-257 melanoma = system: UACC-257 melanoma
MCF7 breast = system: MCF7 breast
SF-295 CNS = system: SF-295 CNS
HCT-15 colon = system: HCT-15 colon
NCI-H322M lung = system: NCI-H322M lung
NCI/ADR-RES ovarian = system: NCI/ADR-RES ovarian
HL-60(TB) leukemia = system: HL-60(TB) leukemia
HCC-2998 colon = system: HCC-2998 colon
SF-539 CNS = system: SF-539 CNS

## CN(C(=O)Cc1cc(Cl)c(Cl)cc1N)C1CCCC[C@@H]1N1CCCC1 (stereo not given in full)
NCI-H226 lung
  TGI: 22.8 µM
SK-MEL-28 melanoma
  TGI: 35.8 µM
KM12 colon
  TGI: 46.1 µM
HT29 colon
  TGI: 36.4 µM
A498 renal
  TGI: 30.2 µM
OVCAR-3 ovarian
  TGI: 43.2 µM
CCRF-CEM leukemia
  TGI: 55.1 µM
OVCAR-4 ovarian
  TGI: 41.7 µM
MOLT-4 leukemia
  TGI: 44.1 µM
MDA-MB-231 breast
  TGI: 41.7 µM
MALME-3M melanoma
  TGI: 32.2 µM
CAKI-1 renal
  TGI: 92.2 µM
SNB-75 CNS
  TGI: 56.2 µM
HS 578T breast
  TGI: 30.6 µM
SK-MEL-2 melanoma
  TGI: 40.7 µM
SK-MEL-5 melanoma
  TGI: 30.4 µM
UO-31 renal
  TGI: 26.8 µM
SN12C renal
  TGI: > 100 µM
COLO 205 colon
  TGI: 33 µM
M14 melanoma
  TGI: 31 µM
HOP-92 NSCLC
  TGI: > 100 µM
RPMI-8226 leukemia
  TGI: 40.1 µM
NCI-H460 lung
  TGI: 34.9 µM
SNB-19 CNS
  TGI: 47.9 µM
EKVX NSCLC
  TGI: > 100 µM
OVCAR-5 ovarian
  TGI: > 100 µM
T-47D breast
  TGI: 36.5 µM
TK-10 renal
  TGI: 51.7 µM
HCT-116 colon
  TGI: 28.4 µM
UACC-62 melanoma
  TGI: 32.8 µM
IGROV1 ovarian
  TGI: > 100 µM
NCI-H522 lung
  TGI: 31 µM
DU-145 prostate
  TGI: > 100 µM
RXF 393 renal
  TGI: 33.1 µM
U251 CNS
  TGI: 32.4 µM
SW-620 colon
  TGI: 44.3 µM
BT-549 breast
  TGI: > 100 µM
SR leukemia
  TGI: 37.2 µM
K-562 leukemia
  TGI: 36.2 µM
SK-OV-3 ovarian
  TGI: > 100 µM
NCI-H23 lung
  TGI: 77.5 µM
LOX IMVI melanoma
  TGI: 36 µM
SF-268 CNS
  TGI: 58.4 µM
ACHN renal
  TGI: 83.9 µM
HOP-62 NSCLC
  TGI: 43.3 µM
MDA-MB-435
  TGI: 32.1 µM
PC-3 prostate
  TGI: 86.3 µM
A549 NSCLC
  TGI: > 100 µM
OVCAR-8 ovarian
  TGI: 95 µM
786-0 renal
  TGI: 29.2 µM
UACC-257 melanoma
  TGI: 34.2 µM
MCF7 breast
  TGI: 31.2 µM
SF-295 CNS
  TGI: 62 µM
HCT-15 colon
  TGI: 42.2 µM
NCI-H322M lung
  TGI: 68.1 µM
NCI/ADR-RES ovarian
  TGI: > 100 µM

## CSc1ccc(Nc2c([N+](=O)[O-])cc([N+](=O)[O-])cc2[N+](=O)[O-])cc1
NCI-H226 lung
  GI50: 2.13 µM
  TGI: 10.4 µM
SK-MEL-28 melanoma
  GI50: 11.6 µM
  TGI: 44.7 µM
KM12 colon
  GI50: 2.98 µM
  TGI: 11.9 µM
HT29 colon
  GI50: 3.29 µM
  TGI: 15.5 µM
A498 renal
  GI50: 1.49 µM
  TGI: 3.73 µM
OVCAR-3 ovarian
  GI50: 2.13 µM
  TGI: 4.95 µM
HL-60(TB) leukemia
  GI50: 1.62 µM
  TGI: 4.25 µM
CCRF-CEM leukemia
  GI50: 2.73 µM
  TGI: > 100 µM
OVCAR-4 ovarian
  GI50: 2.83 µM
  TGI: 10.9 µM
MOLT-4 leukemia
  GI50: 2.07 µM
  TGI: 6.3 µM
MDA-MB-231 breast
  GI50: 2.31 µM
  TGI: 8.54 µM
MALME-3M melanoma
  GI50: 2.73 µM
  TGI: 13.2 µM
CAKI-1 renal
  GI50: 3.77 µM
  TGI: > 100 µM
SNB-75 CNS
  GI50: 16.1 µM
  TGI: 78.9 µM
HS 578T breast
  GI50: 2.39 µM
  TGI: 14.6 µM
SK-MEL-2 melanoma
  GI50: 14 µM
  TGI: 42.4 µM
SK-MEL-5 melanoma
  GI50: 10.3 µM
  TGI: 21.9 µM
UO-31 renal
  GI50: 1.77 µM
  TGI: 11.8 µM
SN12C renal
  GI50: 4.22 µM
  TGI: 80.1 µM
COLO 205 colon
  GI50: 1.84 µM
  TGI: 4.53 µM
M14 melanoma
  GI50: 5.89 µM
  TGI: 19.3 µM
HOP-92 NSCLC
  GI50: 2.03 µM
  TGI: 9.82 µM
RPMI-8226 leukemia
  GI50: 2.68 µM
  TGI: 7.82 µM
NCI-H460 lung
  GI50: 3.16 µM
  TGI: 13 µM
SNB-19 CNS
  GI50: 5.25 µM
  TGI: > 100 µM
EKVX NSCLC
  GI50: 3.94 µM
  TGI: 37 µM
OVCAR-5 ovarian
  GI50: 3.52 µM
  TGI: 13.6 µM
T-47D breast
  GI50: 2.32 µM
  TGI: 45.2 µM
TK-10 renal
  GI50: 5 µM
  TGI: 32.1 µM
HCT-116 colon
  GI50: 1.98 µM
  TGI: 5.03 µM
UACC-62 melanoma
  GI50: 2.66 µM
  TGI: 12.5 µM
IGROV1 ovarian
  GI50: 3.79 µM
  TGI: > 100 µM
NCI-H522 lung
  GI50: 1.54 µM
  TGI: 4.36 µM
DU-145 prostate
  GI50: 5.66 µM
  TGI: > 100 µM
RXF 393 renal
  GI50: 2.17 µM
  TGI: 6.38 µM
U251 CNS
  GI50: 2.88 µM
  TGI: 12.8 µM
SW-620 colon
  GI50: 3.03 µM
  TGI: 12 µM
HCC-2998 colon
  GI50: 4.45 µM
  TGI: 16.6 µM
SR leukemia
  GI50: 2.47 µM
  TGI: 6.56 µM
K-562 leukemia
  GI50: 2.59 µM
  TGI: 12.2 µM
NCI-H23 lung
  GI50: 2.5 µM
  TGI: 10.7 µM
LOX IMVI melanoma
  GI50: 3.1 µM
  TGI: 28.3 µM
SF-268 CNS
  GI50: 3.45 µM
  TGI: > 100 µM
ACHN renal
  GI50: 2.18 µM
  TGI: 5.24 µM
HOP-62 NSCLC
  GI50: 3.39 µM
  TGI: 42.4 µM
MDA-MB-435
  GI50: 8.81 µM
  TGI: 22.2 µM
PC-3 prostate
  GI50: 2.81 µM
  TGI: > 100 µM
A549 NSCLC
  GI50: 5.43 µM
  TGI: 35.7 µM
OVCAR-8 ovarian
  GI50: 2.62 µM
  TGI: 9.77 µM
786-0 renal
  GI50: 3.75 µM
  TGI: 14.4 µM
UACC-257 melanoma
  GI50: 2.44 µM
  TGI: 8.37 µM
MCF7 breast
  GI50: 3.13 µM
  TGI: 13.6 µM
SF-295 CNS
  GI50: 3.78 µM
  TGI: 25 µM
HCT-15 colon
  GI50: 2.56 µM
  TGI: 10.2 µM
SF-539 CNS
  GI50: 4.43 µM
  TGI: > 100 µM
NCI-H322M lung
  GI50: 8.63 µM
  TGI: > 100 µM
NCI/ADR-RES ovarian
  GI50: 3.04 µM
  TGI: 15.2 µM
